How the values were obtained:
[1] = Top 3 Taxol Compounds (20uM) PC3 Vs LNCaP (x2) Vs PNT2 Cell-based assay
Method: Table printed on a drawing sheet, Fig. 9 (Cont.)
Title: Top 3 Taxol Compounds (20uM) PC3 Vs LNCaP (x2) Vs PNT2 Cell-based assay
Footnotes: [diagonal hatching] Tumour (51-100%) / Non-Tumour (0-15%) / [horizontal hatching] Tumour & Non-Tumour (26-50%) / [cross hatching] Tumour (0-25%) / Non-Tumour (51-100%)
First reader's note: Continuation of Fig. 9; cell shading (hatching) classifies the values by the legend, and all compounds were tested at 20uM in cell culture.

[2] = ALL Taxol Compounds (1uM) (ALL Tissue Metabolism)
Method: Table printed on a drawing sheet, Fig. 11
Title: ALL Taxol Compounds (1uM) (ALL Tissue Metabolism)
Footnotes: Tumour (51-100%) / Liver (0-15%) / Tumour & Liver (26-50%) / Tumour (0-25%) / Liver (51-100%)
First reader's note: Cell hatching codes the classes given in the legend; all compounds tested at 1uM in tissue homogenates.

[3] = ALL Taxol Compounds (1uM) PC3 Vs Liver Vs HT1080 Metabolism
Method: Table printed on a drawing sheet, Fig. 7 (Cont.)
Title: ALL Taxol Compounds (1uM) PC3 Vs Liver Vs HT1080 Metabolism
(§1) Footnotes: [diagonal hatching] Tumour (51-100%) / Liver (0-15%) / [horizontal hatching] Tumour & Liver (26-50%) / [cross hatching] Tumour (0-25%) / Liver (51-100%)
First reader's note: Continuation of Fig. 7; cell hatching classifies the values per the legend, and the title states 1uM while the head row states 1mM.

[4] = ALL Taxol Compounds (10uM) PC3 Vs Liver Vs HT1080 Metabolism
Method: Table printed on a drawing sheet, Fig. 8 (Cont.)
Title: ALL Taxol Compounds (10uM) PC3 Vs Liver Vs HT1080 Metabolism
as §1
First reader's note: Continuation of Fig. 8; the title prints 10uM while the head row prints 10mM, and cell hatching marks the classes given in the legend.

FITC [ICT3201]
Cell Culture Metabolism (20uM) | LNCaP (2) Taxol Release (% gain) [1]: 38 % gain
Cell Culture Metabolism (20uM) | LNCaP Stability (% loss) [1]: 91 % loss
Cell Culture Metabolism (20uM) | LNCaP Taxol Release (% gain) [1]: 31 % gain
Cell Culture Metabolism (20uM) | PC3 Stability (% loss) [1]: 57 % loss
Cell Culture Metabolism (20uM) | PC3 Taxol Release (% gain) [1]: 30 % gain
Cell Culture Metabolism (20uM) | PNT2 Stability (% loss) [1]: 62 % loss
Cell Culture Metabolism (20uM) | PNT2 Taxol Release (% gain) [1]: 8 % gain
Tissue Homogenate Metabolism (1uM) | Kidney Stability (% loss) [2]: 45 % loss
Tissue Homogenate Metabolism (1uM) | Kidney Taxol Release (% gain) [2]: 37 % gain
Tissue Homogenate Metabolism (1uM) | Lung Stability (% loss) [2]: 69 % loss
Tissue Homogenate Metabolism (1uM) | Lung Taxol Release (% gain) [2]: 50 % gain
Tissue Homogenate Metabolism (1 µM) | HT1080 Stability (% loss) [3]: 91 % loss
Tissue Homogenate Metabolism (1 µM) | HT1080 Taxol Release (% gain) [3]: 23 % gain
Tissue Homogenate Metabolism (1 µM) | Liver Stability (% loss) [3]: 21 % loss
Tissue Homogenate Metabolism (1 µM) | Liver Taxol Release (% gain) [3]: 5 % gain
Tissue Homogenate Metabolism (1 µM) | PC3 Stability (% loss) [3]: 91 % loss
Tissue Homogenate Metabolism (1 µM) | PC3 Taxol Release (% gain) [3]: 20 % gain
Tissue Homogenate Metabolism (10 µM) | HT1080 Stability (% loss) [4]: 81 % loss
Tissue Homogenate Metabolism (10 µM) | HT1080 Taxol Release (% gain) [4]: 29 % gain
Tissue Homogenate Metabolism (10 µM) | Liver Stability (% loss) [4]: 18 % loss
Tissue Homogenate Metabolism (10 µM) | Liver Taxol Release (% gain) [4]: 11 % gain
Tissue Homogenate Metabolism (10 µM) | PC3 Stability (% loss) [4]: 79 % loss
Tissue Homogenate Metabolism (10 µM) | PC3 Taxol Release (% gain) [4]: 25 % gain

Source: US20190015519A1, “MMP-SENSITIVE TAXANE PRODRUG” (Incanthera Ltd, priority 2015, published 2019)
